The target in this assay is T1, NSD2 (Homo sapiens, UniProt O96028).
T1 sequence (O96028 1-1365): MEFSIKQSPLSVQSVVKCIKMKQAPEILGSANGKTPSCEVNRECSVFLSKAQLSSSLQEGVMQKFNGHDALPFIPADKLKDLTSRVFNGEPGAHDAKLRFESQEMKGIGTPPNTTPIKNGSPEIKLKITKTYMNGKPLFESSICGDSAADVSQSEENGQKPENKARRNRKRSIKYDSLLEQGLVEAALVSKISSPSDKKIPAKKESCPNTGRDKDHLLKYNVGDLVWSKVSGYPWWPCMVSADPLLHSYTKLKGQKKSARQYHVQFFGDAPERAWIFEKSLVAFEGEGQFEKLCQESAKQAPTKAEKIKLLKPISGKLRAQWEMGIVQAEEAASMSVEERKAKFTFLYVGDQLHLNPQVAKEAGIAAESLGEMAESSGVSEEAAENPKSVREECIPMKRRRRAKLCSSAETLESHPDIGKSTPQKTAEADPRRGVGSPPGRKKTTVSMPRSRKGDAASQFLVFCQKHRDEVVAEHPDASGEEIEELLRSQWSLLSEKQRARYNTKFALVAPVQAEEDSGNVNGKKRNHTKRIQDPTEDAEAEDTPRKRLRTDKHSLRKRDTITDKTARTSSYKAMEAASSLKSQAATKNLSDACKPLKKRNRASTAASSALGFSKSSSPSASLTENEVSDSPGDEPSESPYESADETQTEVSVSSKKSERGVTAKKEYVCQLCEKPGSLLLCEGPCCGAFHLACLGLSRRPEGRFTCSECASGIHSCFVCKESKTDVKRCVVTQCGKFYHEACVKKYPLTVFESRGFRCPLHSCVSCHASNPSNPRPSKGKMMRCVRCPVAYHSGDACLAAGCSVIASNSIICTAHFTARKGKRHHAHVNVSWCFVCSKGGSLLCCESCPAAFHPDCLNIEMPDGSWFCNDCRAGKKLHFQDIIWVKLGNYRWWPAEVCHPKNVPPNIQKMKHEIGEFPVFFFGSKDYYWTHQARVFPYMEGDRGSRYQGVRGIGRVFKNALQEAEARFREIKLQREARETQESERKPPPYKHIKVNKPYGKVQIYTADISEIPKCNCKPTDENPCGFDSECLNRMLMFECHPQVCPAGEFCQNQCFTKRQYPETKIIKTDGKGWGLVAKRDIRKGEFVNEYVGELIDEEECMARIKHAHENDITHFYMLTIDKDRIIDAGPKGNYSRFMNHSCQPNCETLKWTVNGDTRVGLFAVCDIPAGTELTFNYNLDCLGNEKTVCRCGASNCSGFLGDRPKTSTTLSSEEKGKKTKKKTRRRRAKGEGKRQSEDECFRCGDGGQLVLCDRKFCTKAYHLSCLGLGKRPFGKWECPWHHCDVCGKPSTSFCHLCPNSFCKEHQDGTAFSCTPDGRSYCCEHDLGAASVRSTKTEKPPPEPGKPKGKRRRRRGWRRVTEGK
The assay is described as follows: Methyltransferase selectivity panel: NSD2. The assay is classed as biochemical. Conditions: substrate Nucleosomes; top concentration 10 µM.

The term IC50 denotes the concentration at which inhibition is half-maximal.

`Nc1ncnc2c1ncn2[C@@H]1O[C@H](CSCC[C@H](N)C(=O)O)[C@@H](O)[C@H]1O` [SAH, reference compound] displayed an IC50 of 9.88 µM.

Source of the values: article PMC5451150 (Journal of Medicinal Chemistry, 2016).
